Series [1] can be described thus: Encapsulation efficiency and loading content in cAS16/PLA5k-PEG2k/elesclomol-Cu NPs. In kind it is physicochemical.
A further series relates to CT26 cells. Description: Cytotoxicity in CT26 cells. To be noted: after light irradiation (LED, 656 nm, 100 mW/cm^2).

The text below walks through data of US20250177423A1, “PHOTORESPONSIVE PEPTIDE DELIVERY SYSTEM AND METHOD OF USING THE SAME” (THE UNIVERSITY OF HONG KONG, priority 2023, published 2025).

Residues, ends and D or L forms follow the SMILES beside them. *: point of attachment. X1 = COc1ccc(/C=C/C2=[N+]3C(=C(COC(=O)*)c4c(C)cc(/C=C/c5ccc(OC)cc5)n4[B-]3(C)C)C(C)=C2)cc1

In series [1], `CN([N-]C(=O)CC(=O)[N-]N(C)C(=[SH+])c1ccccc1)C(=[SH+])c1ccccc1.[Cu]` [elesclomol-Cu] gave an encapsulation efficiency of 13.25% and a loading content of 8.82%.

With `COc1ccc(/C=C/C2=[N+]3C(=C(COC(=O)N[C@@H](C)C(=O)N[C@H](C(=O)N[C@@H](Cc4c[nH]c5ccccc45)C(=O)N[C@@H](CC(C)C)C(=O)N4CCC[C@H]4C(=O)N4CCC[C@H]4C(=O)N[C@@H](CCCNC(=N)N)C(=O)N[C@@H](C)C(=O)N[C@@H](C)C(=O)N[C@@H](CC(N)=O)C(=O)N[C@@H](CC(C)C)C(=O)N[C@@H](CC(C)C)C(=O)N[C@@H](CCSC)C(=O)N[C@@H](C)C(=O)N[C@@H](C)C(=O)N[C@@H](CO)C(=O)O)[C@@H](C)O)c4c(C)cc(/C=C/c5ccc(OC)cc5)n4[B-]3(C)C)C(C)=C2)cc1` [LAMP] (X1-ATWLPPRAANLLMAAS-OH), the “cytotoxicity to CT26 cells” value in the series with CT26 cells was “no cytotoxicity”.
